Source: patent US11168364B2, “Method and system for sequencing nucleic acids” (priority 2016, dated 2021)

Amino acid sequences for entries named in this document (tags omitted). Residues count along the entry.
UniProt P00582, 324-928 D355A/E357A limits assumed: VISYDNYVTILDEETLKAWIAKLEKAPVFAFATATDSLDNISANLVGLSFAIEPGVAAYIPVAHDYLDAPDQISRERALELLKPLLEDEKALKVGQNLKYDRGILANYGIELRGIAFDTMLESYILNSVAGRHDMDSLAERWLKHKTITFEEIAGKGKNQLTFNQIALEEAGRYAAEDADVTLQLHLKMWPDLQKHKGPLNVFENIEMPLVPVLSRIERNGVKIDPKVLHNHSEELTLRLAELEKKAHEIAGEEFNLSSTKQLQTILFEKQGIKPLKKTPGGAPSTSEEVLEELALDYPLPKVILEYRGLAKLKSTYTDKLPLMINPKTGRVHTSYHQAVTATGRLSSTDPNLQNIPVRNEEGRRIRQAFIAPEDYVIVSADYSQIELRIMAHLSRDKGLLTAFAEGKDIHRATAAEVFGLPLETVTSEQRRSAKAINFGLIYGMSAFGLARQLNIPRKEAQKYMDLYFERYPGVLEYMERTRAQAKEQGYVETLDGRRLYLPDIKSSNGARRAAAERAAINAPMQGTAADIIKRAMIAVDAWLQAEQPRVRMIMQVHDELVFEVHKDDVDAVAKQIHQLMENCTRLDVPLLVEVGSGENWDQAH

Molecular target: Klenow (3′→5′ exo(−)) fragment of E. coli DNA polymerase (Escherichia coli, UniProt P00582, D355A/E357A)

O=S(=O)([O-])[O-].O=S(=O)([O-])[O-].[Fe+2].[NH4+].[NH4+] [Fe2+, ferrous ammonium sulfate]
binding of Klenow exo(−) and dCTP to biosensor coated with ssDNA primer-template: transient peak
nucleotide incorporation by Klenow exo(−) in the absence of Mg2+: complete nucleotide incorporation
